Earlier results as cited in patent US20100078098A1, “GAS GENERATING COMPOSITION FOR INFLATOR CONTAINING MELAMINE CYANURATE” (published 2010).

| Molecule | LD50 (oral-rat) |
| --- | --- |
| [N-]=[N+]=[N-] | 27 mg/kg |
| melamine cyanurate | 2020 mg/kg |
